Laboratory results reported in publication PMC3288053 (PLoS ONE, 2012).

Sequences of proteins named here, by UniProt entry; tags and fusion partners are left off. Residues count along the entry.
UniProt P37231, 230-505: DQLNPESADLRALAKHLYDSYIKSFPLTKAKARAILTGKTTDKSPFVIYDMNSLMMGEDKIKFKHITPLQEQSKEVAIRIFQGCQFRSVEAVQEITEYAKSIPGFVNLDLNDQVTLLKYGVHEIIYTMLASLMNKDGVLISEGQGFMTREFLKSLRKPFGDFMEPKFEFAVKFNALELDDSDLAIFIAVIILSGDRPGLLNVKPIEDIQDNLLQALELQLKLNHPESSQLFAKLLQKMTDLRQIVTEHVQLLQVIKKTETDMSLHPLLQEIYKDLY

Molecular target: T1, PPARγ-LBD/SRC1_613–773 interaction (Homo sapiens, UniProt P37231)
T1 construct: pET15b-PPARγ-LBD202–477; His-tag (N); made in house; host or cells: E. coli BL21 (DE3)
Assay: SPR SRC1 recruitment assay
Assay type: binding
Conditions: 1 µM PPARγ-LBD incubated with compound 1 hour

CN(CCOc1ccc(CC2SC(=O)NC2=O)cc1)c1ccccn1 (stereo not shown) [rosiglitazone, reference compound]
effect on interaction between PPARγ-LBD and SRC1: greatly enhanced
